# Tested on: Capsaicin hydrolyzing/dehydration condensing enzyme of the invention
# Experimental: The reaction temperature is 37° C.
# As a comparative example, aminoacylase is used. The resulting capsaicin analog is quantitatively measured by HPLC analysis of the hexane phase.
compound,measurement,value
CCCCCCCCCCCC(=O)O [Lauric acid],reactivity in synthesis between vanillylamine and saturated fatty acids,highest

# — patent US20040106172A1, “Hydrolyzing/dehydration condensing enzymes, method for producing the enzyme and method for synthesizing amide by using the enzyme” (Okayama University, priority 2002, published 2004)
